Measured values taken from ChEMBL document CHEMBL1759955, “6-Benzoyl-3-hydroxypyrimidine-2,4-diones as dual inhibitors of HIV reverse transcriptase and integrase” (Bioorg Med Chem Lett, 2011).

Experiments:
[1] = biological target: Human immunodeficiency virus type 1 reverse transcriptase (Human immunodeficiency virus 1) (UniProt Q72547); assay: Inhibition of HIV-1 reverse transcriptase at 10 uM
[2] = biological target: Human immunodeficiency virus type 1 reverse transcriptase (Human immunodeficiency virus 1) (UniProt Q72547); assay: Inhibition of HIV-1 reverse transcriptase at 100 uM

SMILES	inhibition [1]	inhibition [2]
CCc1c(C(=O)c2cc(C)cc(C)c2)n(COCc2ccc(F)cc2)c(=O)n(O)c1=O	68%	85%
CCOCn1c(C(=O)c2ccccc2)c(CC)c(=O)n(O)c1=O	37%	61%
CCc1c(C(=O)c2ccccc2)n(COCc2ccccc2)c(=O)n(O)c1=O	61%	84%
CCc1c(C(=O)c2ccccc2)n(COCc2ccc(F)cc2)c(=O)n(O)c1=O	41%	78%
